Sequences of proteins named here, by UniProt entry; tags and fusion partners are left off. A change or cut given only in a name is not applied to a line headed by its entry.
UniProt P41144: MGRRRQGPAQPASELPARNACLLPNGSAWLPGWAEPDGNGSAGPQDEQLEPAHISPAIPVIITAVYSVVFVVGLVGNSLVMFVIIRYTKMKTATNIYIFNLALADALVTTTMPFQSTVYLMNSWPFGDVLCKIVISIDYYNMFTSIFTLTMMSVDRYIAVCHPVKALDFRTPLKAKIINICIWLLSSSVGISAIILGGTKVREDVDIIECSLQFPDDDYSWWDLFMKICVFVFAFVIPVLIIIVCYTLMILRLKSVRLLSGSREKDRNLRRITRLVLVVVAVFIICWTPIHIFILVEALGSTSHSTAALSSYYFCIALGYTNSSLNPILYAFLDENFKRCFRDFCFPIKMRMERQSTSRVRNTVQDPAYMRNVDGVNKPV
UniProt P97266, whole entry: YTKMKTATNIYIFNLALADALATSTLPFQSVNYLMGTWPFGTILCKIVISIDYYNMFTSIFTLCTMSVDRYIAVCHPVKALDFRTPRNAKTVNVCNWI

In BindingDB's records for doi:10.1124/jpet.302.1.374 (University of Rochester, 2002):

What was measured:
[1] = biological target: Kappa-type opioid receptor (Cavia porcellus, UniProt P41144)
Mu-type opioid receptor = Mu-type opioid receptor (Cavia porcellus, UniProt P97266)

C[C@H]1C2Cc3ccc(C(N)=O)cc3[C@@]1(C)CCN2CC1CC1 [8-CAC]
Ki [1]: 0.42 nM | Ki (Mu-type opioid receptor): 0.34 nM
